PMC11510563 (Pharmaceutics, 2024)

Tested on: RPMI 2650 human nasal epithelial cell barrier
Assay: FITC-insulin transcytosis across RPMI 2650 barrier at air-liquid interface
Format: in vitro ADME
Settings: for apparent permeability (Papp), raw data of Figure 3b: RPMI 2650 at air-liquid interface, apical to basal, FITC-insulin, 6 h period as a whole
Description: RPMI 2650 cells were seeded on polystyrene capillary pore membrane inserts (12.07 mm diameter, 0.4 μm pore size; 66564; Greiner Bio-One, Stonehouse, UK) that fit into 12-well plates (250,000 cells in 500 μL of supplemented EMEM in the apical chamber with a further 1 mL of media in the basal chamber). After eight days, liquid-covered culture medium was removed from the apical chamber, and cells were cultured at the air–liquid interface for a further 12–13 days to stimulate the expression of physiologically relevant tight junction and drug transport proteins. Medium was refreshed, and TEER was measured every two to four days using an EVOM2^TM epithelial voltohmeter (World Precision Instruments, Sarasota, FL, USA), with background conductance removed by subtracting acellular readings. TEER of human nasal mucosa is typically 60–180 Ω/cm^2 [18], so only cultures with TEER above 60 Ω/cm^2 were used for transcytosis or viability studies.

In the case of insulin, the “apparent permeability (Papp), raw data of Figure 3b” value (shortened to “apparent permeability (Papp)”) (replicate 1) is reported as 0.827, the “apparent permeability (Papp)” value (replicate 2) is reported as 1.309 and the “apparent permeability (Papp)” value (replicate 3) is reported as 0.9267. The “transcytosis across the RPMI 2650 barrier” value (air-liquid interface, 3.4 μM FITC-insulin, up to 6 h) was “minimal”.
